# Screens deposited in PubChem BioAssay by National Center for Advancing Translational Sciences (NCATS).
# The list is not random: actives were taken first. Their share in the collection is about 16%.
# miR-21 reporter: raises the signal of a miR-21 reporter | Potency, µM (doses to about 38.3 µM), for inactives: top-dose reporter change, positive = more light | HeLa miR-21 FLuc reporter, luciferase, 48 h | AID 2288 | 340,000 tested, under 10 active; active = well fitted rising curve with a large enough effect; inconclusive = small, poorly fitted or top-dose-only effect; inactive = no such curve, though single readings can be large or run the other way;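 also: % of control where 0% means no effect; miR-21 action dims this reporter so a rising signal means less miR-21 action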
#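 HeLa cells stably expressing CMV-driven firefly luciferase with a downstream miR-21 binding sequence, endogenously expressing miR-21, were treated with titrations (up to about 40uM final) for 48 hours at 37 degree Celsius. Luciferase luminescence was read after lysis.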
# TDP1 inh: blocks human tyrosyl-DNA phosphodiesterase 1. recombinant TDP1, AlphaScreen DNA substrate cleavage. Potency, µM (highest dose often 130 µM), for inactives: top-dose activity change, negative = inhibition, hits mostly inhibitors. 350,000 tested, 0.28% active. AID 485290; note: potency is the fitted concentration of half-maximal effect; % is set by controls: 0 for no effect and ±100 for the full control effect; nearly all actives have a fitted effect of over 40% in size
#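 Recombinant human Tdp1 (E. coli-expressed, 1 nM final) preincubated with compounds 15 min at room temperature, then 5'-biotin/3'-phosphotyrosine-FITC DNA substrate (15 nM final) added for 5 min. AlphaScreen beads (10 ug/ml final) added 10 min; cleavage lowers signal.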
# DT40 TDP1 CPT: DT40-hTDP1 cell growth loss with CPT | chicken DT40 Tdp1-/-;hTDP1 cells + 20 nM CPT, ATP luminescence, 48 h | Potency, µM (top dose mostly 46.2 µM), for the others: at the top dose activity change, negative = growth inhibition, hits mostly inhibitors | 420,000 tested, 12% active | AID 686979; note: potency is the fitted concentration of half-maximal effect; % is set by controls: 0 for no effect and ±100 for the full control effect; nearly all actives have a fitted effect of over 55% in size
#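 Chicken DT40 Tdp1-/- cells stably complemented with human TDP1 were seeded at 400 cells/well in medium containing 20 nM camptothecin, exposed to pin-transferred compounds, and grown at 37 °C for at least 48 hr. Viability was read as ATP luminescence.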
# uPA generation: blocks generation of uPA at the cell surface; 330,000 tested, 0.31% active; Potency, µM (doses to about 38.3 µM), without a hit: at the highest dose activity change, negative = inhibition, most hits filed as inhibitors; cell surface uPA generation assay, qHTS; active = well fitted inhibition curve with a large enough effect; inconclusive = small, poorly fitted or top-dose-only effect; inactive = no such curve, though single readings can be large or run the other way; tested in mouse RAW 264.7 cells; note: potency is the fitted concentration of half-maximal effect; % is set by controls: 0 for no effect and ±100 for the full control effect; nearly all actives have a fitted effect of over 55% in size
# TDP1 cell noCPT: qHTS for Inhibitors of human tyrosyl-DNA phosphodiesterase 1 (TDP1): qHTS in cells in absence of CPT | 420,000 tested, 15% active | AID 686978, 2013 | Potency, µM (top dose mostly 46.2 µM), for the others: at the top dose activity change, negative = growth inhibition, usual class: inhibitors | DT40 Tdp1-/- hTDP1 cells, no CPT, ATP luminescence, 48 h; note: potency is the fitted concentration of half-maximal effect; % is set by controls: 0 for no effect and ±100 for the full control effect; nearly all actives have a fitted effect of over 55% in size
#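 No-CPT arm: Tdp1-/-;hTDP1 DT40 cells (400/well) plus compounds, incubated ≥48 hr at 37 °C. Readout CellTiter-Glo luminescence.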
# * = called active by the depositor; ? = inconclusive; . = no result; [ ] = dose if it differs, or a comment. Unless noted, calls come from the whole dose curve; as a rule, active = well fitted curve in the direction sought with a large enough effect; inconclusive = small, poorly fitted or top-dose-only effect, or another doubt; inactive = no such curve, though single readings can be large; an effect the other way counts as inactive or inconclusive.
no.	Compound	DT40 TDP1 CPT	TDP1 cell noCPT	uPA generation
1	CC(=O)c1ccc(-c2ccc(C(=O)NCC(c3ccc(F)cc3)N3CCOCC3)o2)cc1 (configuration not stated)	4%	?	4%
2	COc1cc([N+](=O)[O-])c2ncccc2c1	.	.	.
3	COc1ccc(S(=O)(=O)CCC(=O)Nc2cc(C)ccc2OC)cc1	-13%	-32%	11%
4	Cn1cc(CN2CC3C[C@@H]4CC2C[C@H](C3)C4)c(-c2ccc3c(c2)OCCO3)n1	-19%	?	-2%
5	O=C(CCn1c2c(c3ccccc31)CCCC2)NNC(=O)c1ccccc1[N+](=O)[O-]	?	7.3µM*	4%
6	O=C(NCCC1CCCCN1S(=O)(=O)c1cccs1)C(=O)Nc1ccccc1 (configuration not stated)	16µM*	23µM*	-3%
7	COc1ccc(NC(=O)C(=O)NCCC2CCCCN2S(=O)(=O)c2ccccc2)cc1 (configuration not stated)	4.1µM*	2.9µM*	?
8	O=C(NCCc1ccccc1)C(=O)NCCC1CCCCN1S(=O)(=O)c1cccs1 (configuration not stated)	?	?	-8%
9	COc1ccc(CNC(=O)C(=O)NCCC2CCCCN2S(=O)(=O)c2ccccc2)cc1 (configuration not stated)	?	?	-4%
10	COc1ccc(NC(=O)C(=O)NCCC2CCCCN2S(=O)(=O)c2cccs2)cc1 (configuration not stated)	3.7µM*	4.6µM*	-12%
11	COc1cccc(NC(=O)C(=O)NCCC2CCCCN2S(=O)(=O)c2cccs2)c1 (configuration not stated)	?	16µM*	-7%
12	COc1ccc(CNC(=O)C(=O)NCCC2CCCCN2S(=O)(=O)c2cccs2)cc1 (configuration not stated)	?	?	-4%

no.	TDP1 inh	miR-21 reporter
1	2%	.
2	0%	.
3	0%	-2%
4	5%	-26%
5	4%	3%
6	-2%	.
7	0%	.
8	0%	.
9	.	.
10	0%	.
11	0%	.
12	0%	.

# Whole records, looked up by structure. Order of values: DT40 TDP1 CPT, TDP1 cell noCPT, uPA generation, TDP1 inh, miR-21 reporter
# `COc1ccc(S(=O)(=O)CCC(=O)Nc2cc(C)ccc2OC)cc1` as listed: -13%, -32%, 11%, 0%, -2%
# `O=C(NCCC1CCCCN1S(=O)(=O)c1cccs1)C(=O)Nc1ccccc1` (configuration not stated) as listed: 16µM*, 23µM*, -3%, -2%, .

# Next part
no.	Compound	DT40 TDP1 CPT	TDP1 cell noCPT	uPA generation
13	O=C(NC(C(=O)c1ccccc1)n1c(=O)cc[nH]c1=S)c1ccccc1 (configuration not stated)	-24%	-17%	1%
14	COc1ccc2[nH]cc(CCNC(=O)/C=C/[C@H]3O[C@@H](n4cc(C)c(=O)[nH]c4=O)C[C@@H]3O)c2c1	0%	9%	.
15	O=C(NCCC1CCCCN1S(=O)(=O)c1ccc(F)cc1)C(=O)Nc1ccccc1 (configuration not stated)	?	18µM*	1%
16	CCN(CC(=O)Nc1ccc(C(C)=O)cc1)CC(=O)Nc1ccc2c(c1)OCCO2	?	?	2%
17	COC(=O)c1cc(S(=O)(=O)NCCc2ccc(Cl)cc2)c[nH]1	18µM*	12µM*	14%
18	Cc1ccc(CCNC(=O)c2cc(S(=O)(=O)N3CCCCC3)c[nH]2)cc1	-11%	-25%	11%
19	COC(=O)c1cc(S(=O)(=O)N(Cc2ccccc2)C(C)(C)C)c[nH]1	18µM*	16µM*	-28%
20	O=C(NCCc1ccc(Cl)cc1)c1cc(S(=O)(=O)N2CCCCC2)c[nH]1	23µM*	9.2µM*	-4%
21	COC(=O)c1cc(S(=O)(=O)NCc2ccccc2)c[nH]1	-10%	-9%	-10%
22	CCC(C(=O)O)n1ccc2cc(S(=O)(=O)N3CCCCC3)ccc21 (configuration not stated)	-3%	-9%	.
23	CCc1ccc(CNC(=O)C(CC)n2ccc3cc(S(=O)(=O)N4CCCCC4)ccc32)cc1 (configuration not stated)	?	23µM*	.
24	Cn1ccc2cc(S(=O)(=O)N3CCCC(C(=O)NCc4ccccc4)C3)ccc21 (configuration not stated)	-28%	6%	.
25	CCc1ccc(CNC(=O)C2CCN(S(=O)(=O)N3CCCCC3)CC2)cc1	?	23µM*	.

no.	TDP1 inh	miR-21 reporter
13	-10%[56.1 µM]	-18%
14	.	.
15	0%	.
16	2%	.
17	.	16%
18	.	7%
19	0%	20%
20	.	16%
21	.	0%
22	3%	-2%
23	6%	19%
24	4%	-5%
25	.	.
